This experiment deals with Kappa-type opioid receptor (Homo sapiens, UniProt P41145). In words: Displacement of [3H]U-69,593 from human KOR expressed in CHO cells. Type of experiment: cell-based. A general note: Loss of bound radioactivity is the signal in a displacement assay; it reports binding, not function.

By UniProt entry, the sequences of proteins in these tests, tags left out. Where a name states a change or a piece, a line headed by the entry shows the natural chain unless it says otherwise.
UniProt P41145: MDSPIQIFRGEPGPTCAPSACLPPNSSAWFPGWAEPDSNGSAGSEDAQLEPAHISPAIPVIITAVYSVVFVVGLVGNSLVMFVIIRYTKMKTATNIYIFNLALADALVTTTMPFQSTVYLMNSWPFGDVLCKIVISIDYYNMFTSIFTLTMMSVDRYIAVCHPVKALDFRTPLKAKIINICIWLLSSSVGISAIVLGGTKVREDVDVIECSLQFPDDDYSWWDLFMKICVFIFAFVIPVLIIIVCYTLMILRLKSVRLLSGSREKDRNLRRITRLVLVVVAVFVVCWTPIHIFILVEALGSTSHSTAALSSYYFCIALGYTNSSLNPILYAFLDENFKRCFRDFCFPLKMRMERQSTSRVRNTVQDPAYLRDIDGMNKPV

`Oc1ccc2c3c1O[C@H]1c4[nH]c5ccccc5c4C[C@@]4(O)[C@@H](C2)N(CC2CC2)CC[C@]314` [NALTRINDOLE] registered a Ki of 14.7 nM.

Broadly, the Ki is a measure of affinity in units of concentration, obtained from inhibition or displacement.

For the origin of these results see ChEMBL document CHEMBL3596130 (Bioorg Med Chem Lett, 2015).
